Values joined by “and” are separate entries in the source; they are usually repeats but may differ in a detail not shown here. Equal values may be shown once. This is a selection; strong and weak results do not stand in their true shares. Active and inactive are the calls of the source.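 The calls were made as follows: active = inhibition above about 70% (limit read from the data); inactive = the rest.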
biological target: 14-3-3 protein zeta/delta (Bos taurus) (UniProt P63103); assay: inhibitors of 14-3-3 zeta/Bad binding, primary screen, biochemical, TR-FRET, bovine 14-3-3 zeta (AID 781); conditions: TR-FRET 14-3-3zeta/Dy647-pBad peptide displacement, 1 h; at 21.7 µM; hits give high values;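 also: 0% = full 14-3-3 plus peptide FRET controls and 100% = background without 14-3-3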

Chains of the proteins cited; added tags and fusions are not shown. Lines headed by an entry give the natural chain unless they say otherwise; changes in a name come on top.
UniProt P63103: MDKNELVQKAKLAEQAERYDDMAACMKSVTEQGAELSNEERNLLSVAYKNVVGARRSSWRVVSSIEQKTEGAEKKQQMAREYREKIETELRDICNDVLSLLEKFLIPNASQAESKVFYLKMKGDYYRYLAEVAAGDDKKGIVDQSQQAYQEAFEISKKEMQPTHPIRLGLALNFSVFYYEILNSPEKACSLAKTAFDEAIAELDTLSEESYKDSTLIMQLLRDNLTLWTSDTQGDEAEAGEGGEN

Compound | inhibition
CC(C)C(=O)NC(Sc1ccccc1)C(Cl)(Cl)Cl (stereo unspecified) | inactive: 3.13%
O=P(Nc1nccs1)(c1ccccc1)c1ccccc1 | inactive: -5.52%
c1nnnn1CCn1cnnn1 | inactive: -6.43%
O=P(Nc1ccccn1)(c1ccc(Br)cc1)c1ccc(Br)cc1 | inactive: -5.55%
C[C@H]1OP(=O)(Oc2ccccc2)[C@H](O)[C@H](O)[C@H]1N=[N+]=[N-] (stereo partly specified) | inactive: 0.13%
O=P(Nc1nc2ccccc2s1)(c1ccccc1)c1ccccc1 | inactive: -1.97%
O=[As](O)(c1ccccc1)c1ccc(O)cc1 | inactive: -0.23%
O=[N+]([O-])c1ncn(CCn2cnc([N+](=O)[O-])n2)n1 | inactive: 1.62%
CC(=O)NC(SC(=S)N(C)C)C(Cl)(Cl)Cl (stereo unspecified) | inactive: -2.3%
O=C(OC1CN2CCC1CC2)c1cccc(Cl)c1 (stereo unspecified) | inactive: 15.1%
C(Cc1nn[nH]n1)Cc1nn[nH]n1 | inactive: 17.2%
Nc1ccc([As](=O)(O)c2ccc([N+](=O)[O-])cc2)cc1 | inactive: -1.43%
CCOC(=O)NC(Sc1ccccc1)C(Cl)(Cl)Cl (stereo unspecified) | inactive: 4.01%
Cc1ccc(NP(=O)(Oc2cccc(C)c2)Oc2cccc(C)c2)nc1 | inactive: 4.56%
c1ccc(-c2nn[nH]n2)c(-c2nn[nH]n2)c1 | inactive: -15.5%
CCNC(=S)/N=C(\N)N[N+](=O)[O-] | inactive: -14%
O=C(NC1CCS(=O)(=O)C1)NP(=S)(Oc1ccccc1)Oc1ccccc1 (stereo unspecified) | inactive: 0.08%
CCC(=O)N1C2C3N(C(=O)CC)C1C1N(C(=O)CC)C(C(N1C(=O)CC)N3C(=O)CC)N2C(=O)CC | inactive: -12.3%
Cc1ccc(OP(=O)(Nc2ccccn2)Oc2ccc(C)cc2)cc1 | inactive: -4.25%
CC(=O)NC(SC(=S)N(CC(C)C)CC(C)C)C(Cl)(Cl)Cl (stereo unspecified) | inactive: -6.49%
COC(=O)c1cc2c(s1)N=C(c1ccccc1)N(C)P2(=O)N1CCOCC1 (stereo unspecified) | inactive: 5.9%
O=c1c2cc([N+](=O)[O-])ccc2[nH]c2c([N+](=O)[O-])cc([N+](=O)[O-])cc12 | inactive: -5.61%
CN(C)C(=O)Oc1noc2ccccc12 | inactive: 4.39%
Cc1ccccc1OP(=O)(Nc1ccccn1)Oc1ccccc1C | inactive: 5.62%
CCOc1ccc(C2=NCC(CBr)S2)cc1 (stereo unspecified) | inactive: 14.8%
O=P1(Nc2nc3ccc(Cl)cc3s2)COc2ccccc2O1 (stereo unspecified) | inactive: 37.1%

Compound | inhibition
CC(C)(C)C(=O)NC(Sc1ccccc1)C(Cl)(Cl)Cl (stereo unspecified) | inactive: -5.55%
C[C@H]1OP(=O)(Oc2ccccc2)C[C@@H]2O[C@@H]21 (stereo partly specified) | inactive: -1.8%
C[C@@H]1C=CCP(=O)(Oc2ccccc2)O1 (stereo partly specified) | inactive: 0.26%
CC(=O)Nc1ccc(Oc2c([N+](=O)[O-])cc([N+](=O)[O-])cc2[N+](=O)[O-])cc1 | inactive: 18.6%
CC(=O)Nc1ccc([As](=O)(O)O)c(O)c1 | inactive: -4.18%
Cc1ccc(N/C(=N/P(=O)(N2CCOCC2)N2CCOCC2)N2CCOCC2)cc1 | inactive: -19.2%
NC(=O)c1cc([N+](=O)[O-])cc([N+](=O)[O-])c1N | inactive: -1.18%
CN1CCCC(OC(=O)C(c2ccccc2)c2ccccc2)C1 (stereo unspecified) | inactive: 22.2%
Clc1ccc(Cl)c(NC2=NCC(CBr)S2)c1 (stereo unspecified) | inactive: -1.7%
Cc1ccc(OP(=O)(Nc2nccs2)Oc2ccc(C)cc2)cc1 | inactive: 3.39%
COc1ccccc1OP(=O)(Nc1ccc(C)cn1)Oc1ccccc1OC | inactive: 6.13%
O=C(NC(Sc1ccncn1)C(Cl)(Cl)Cl)c1ccccc1 (stereo unspecified) | inactive: -3.32%
Cc1c2non([O-])c-2c(C)[n+](=O)[n+]1[O-] | inactive: 7.23%
Oc1ccccc1CNc1ccccn1 | inactive: -0.63%
Nc1cc(N)c2nonc2c1[N+](=O)[O-] | inactive: 2.06%
CC(C)CC(=O)NC(Sc1ccc(Cl)cc1)C(Cl)(Cl)Cl (stereo unspecified) | inactive: -5.69%
O=P(Nc1nc2ccc(Cl)cc2s1)(c1ccccc1)c1ccccc1 | inactive: -7.88%
CC(=O)Nc1ccc([As](=O)(O)O)cc1 | inactive: -17.4%
O=C(O)c1ccccc1[As](=O)(O)O | inactive: -5.66%
Cc1ccc(NP(=O)(Oc2ccccc2F)Oc2ccccc2F)nc1 | inactive: 2.34%
Cc1cc(SC(NC(=O)c2ccc(F)cc2)C(Cl)(Cl)Cl)ncn1 (stereo unspecified) | inactive: 9.93%
CCOP(=O)(Nc1ccccc1)OCC | inactive: -4.5% and inactive: -11.6%
Nc1cccc2ccc([As](=O)(O)O)cc12 | inactive: -2.11%
O=C(Nc1cc([As](=O)(O)O)ccc1O)c1ccccc1 | inactive: -1.06%
O=[N+]([O-])c1ncn(CCn2ncnc2[N+](=O)[O-])n1 | inactive: -0.02%
CC(C)(C)C(=O)NC(Sc1ccncn1)C(Cl)(Cl)Cl (stereo unspecified) | inactive: -3.77%

Compound | inhibition
O=C(O)CNc1ccc([As](=O)(O)O)cc1 | inactive: -1.31%
O=[N+]([O-])c1cccc(NC2=NCC(CBr)S2)c1 (stereo unspecified) | inactive: 5.39%
COc1ccc(C2=NCC(CBr)S2)cc1 (stereo unspecified) | inactive: -0.58%
CCc1nc2c(n1)c1c(non1O)c1c2no[n+]1[O-] | inactive: 8.53%
O=[N+]([O-])c1cc([N+](=O)[O-])c(CCNc2ccccc2)c([N+](=O)[O-])c1 | inactive: -12.9%
Cc1ccc(NP(=O)(Oc2ccccc2)Oc2ccccc2)nc1 | inactive: -2.43%
O=[N+]([O-])c1cccc2n[nH]nc12 | inactive: 11.7%
CC(=O)N1C2C3N(C(C)=O)C1C1N(C(C)=O)C(C(N1C(C)=O)N3C(C)=O)N2C(C)=O | inactive: -7.35%
CCN(/C(=N/P(=O)(N1CCOCC1)N1CCOCC1)N1CCOCC1)c1ccc(OC)cc1 | inactive: -5.89%
C[N+]1=C2C=CC=CC=C2SC12C([N+](=O)[O-])=CC([N+](=O)[O-])=C[C-]2[N+](=O)[O-] (stereo unspecified) | inactive: -3.7%
Nc1ccc([As](=O)(O)c2ccc(N)cc2)cc1 | inactive: -4.36%
CC1CCN(C(=O)Oc2c(Cl)cc(Cl)c3cccnc23)CC1 | inactive: 0.95%
CN(C)C(=O)OCCc1n(C)cc[n+]1C | inactive: 25.5%
CC(C)=N/N=C(\N)N[N+](=O)[O-] | inactive: -3.02%
COP1(=S)c2c(C)nn(CCC#N)c2N=C(c2ccc(F)cc2)N1C (stereo unspecified) | inactive: 4%
O=C(COc1ccccc1)OC1CN2CCC1CC2 (stereo unspecified) | inactive: -3.35%
CCOC(=O)c1ccc(NC(=O)C(C)(CCl)SC)cc1 (stereo unspecified) | inactive: -0.52%
CCC(C)N(CC(C)C)C(=S)SC(NC(C)=O)C(Cl)(Cl)Cl (stereo unspecified) | inactive: 3.94%
CCOC(=O)Nc1ccc([As](=O)(O)O)c(O)c1 | inactive: -0.75%
Cc1cc(SC(NC(=O)c2ccccc2)C(Cl)(Cl)Cl)nc(C(C)C)n1 (stereo unspecified) | inactive: 6.39%
CCOC(=O)Nc1cccc([As](=O)(O)O)c1 | inactive: -2.96%
O=P(Nc1ccccn1)(c1cccc2ccccc12)c1cccc2ccccc12 | inactive: -20.6%
Cc1cc(SC(NC=O)C(Cl)(Cl)Cl)ncn1 (stereo unspecified) | inactive: -1.79%
O=[N+]([O-])c1ccc(Nc2ccc(Oc3ccc([N+](=O)[O-])cc3[N+](=O)[O-])cc2)c([N+](=O)[O-])c1 | inactive: -4.43%
C[As](=O)(O)c1cccc(C(=O)O)c1 | inactive: -1.07%
O=[As](O)(c1ccc(O)cc1)c1ccccc1O | inactive: 11.9%

Compound | inhibition
Cc1ccc(OP(=O)(Nc2ccc([N+](=O)[O-])cn2)Oc2ccc(C)cc2)cc1 | inactive: -0.79%
Cc1ccc2nc3c(c(C)c2c1)CC(C(Cl)Cl)S3 (stereo unspecified) | inactive: 2.78%
ClCCSc1nnc(-c2cccnc2)o1 | inactive: -12.3%
CC(C)c1ccc(OP(=O)(Nc2ccccn2)Oc2ccccc2F)cc1 (stereo unspecified) | inactive: -6.44%
O=[N+]([O-])c1cc([N+](=O)[O-])c(-c2ccn[nH]2)s1 | inactive: -1.26%
CC(C)NC(=O)NP(=O)(Oc1ccccc1)Oc1ccccc1 | inactive: -1.5%
CCN(CC)C(=S)SC(NC=O)C(Cl)(Cl)Cl (stereo unspecified) | inactive: -11.7%
Cc1c2c(nc3ccccc13)SC(C(Cl)Cl)C2 (stereo unspecified) | inactive: 0.64%
Cc1cc(=O)[nH]c(N[N+](=O)[O-])n1 | inactive: -5.56%
O=C(OC1CN2CCC1CC2)C12CC3CC(CC(C3)C1)C2 (stereo unspecified) | inactive: 0.75%
COc1cc(I)ccc1[As](=O)(O)O | inactive: -0.38%
COc1ccc2nc(NP(=O)(c3ccccc3)c3ccccc3)sc2c1 | inactive: -7.31%
COc1ccc(N/C(=N/P(=O)(N2CCOCC2)N2CCOCC2)N2CCOCC2)cc1 | inactive: -5.37%
O=C(OC1CN2CCC1CC2)c1ccc(Cl)cc1 (stereo unspecified) | active: 95.4%
O=[As](O)(O)c1cccnc1 | inactive: 1.76%
COc1cc(C(=O)NCC2(N3CCOCC3)CCCCC2)cc(Cl)c1OC(C)C | inactive: -5.56%
Cc1cccc(OCC(=O)OC2CN3CCC2CC3)c1 (stereo unspecified) | inactive: 11.5%
O=[As](O)(c1cccc(O)c1)c1cccc(O)c1 | inactive: -6.72%
Nc1cccc2c([As](=O)(O)O)cccc12 | inactive: -4.17%
Cc1ccc(NCCc2c([N+](=O)[O-])cc([N+](=O)[O-])cc2[N+](=O)[O-])cc1 | inactive: -4.98%
CCCOP(=S)(Nc1nc(N)cc(=O)[nH]1)OCCC | inactive: 2.45%
CCOP(=O)(Nc1cccc2ccccc12)OCC | inactive: -12.6%
COc1cc(C2NCCC3(OCCO3)C2(C)C)cc(OC)c1OC (stereo unspecified) | inactive: 12%

From PubChem BioAssay AID781 (Emory University Molecular Libraries Screening Center, 2007)
